Data published in patent US11207283B2, “Inactivators of toxoplasma gondii ornithine aminotransferase for treating toxoplasmosis and malaria” (priority 2016, dated 2021).

Legend:
[1] = biological target: T1, human OAT (Homo sapiens, UniProt P04181); conditions: cited from earlier work
T1 sequence (P04181 36-439 limits assumed): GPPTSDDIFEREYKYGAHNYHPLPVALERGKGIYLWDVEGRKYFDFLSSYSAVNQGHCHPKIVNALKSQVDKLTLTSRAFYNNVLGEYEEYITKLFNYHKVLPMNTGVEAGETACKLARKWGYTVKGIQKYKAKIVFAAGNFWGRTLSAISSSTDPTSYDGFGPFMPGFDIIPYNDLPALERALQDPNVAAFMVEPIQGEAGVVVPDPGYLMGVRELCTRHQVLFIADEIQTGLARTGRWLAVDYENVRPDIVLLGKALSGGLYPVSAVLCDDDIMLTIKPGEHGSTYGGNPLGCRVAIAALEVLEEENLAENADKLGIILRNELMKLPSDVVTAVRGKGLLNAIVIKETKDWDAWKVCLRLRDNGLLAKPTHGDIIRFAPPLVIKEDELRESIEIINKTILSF

[2] = biological target: TgOAT; conditions: time-dependent inactivators

gabaculine [Compound 23, reference compound]
activity against human OAT (in words) [1]: equally potent irreversible inhibitor
kinact/KI [2]: 183330 M⁻¹ s⁻¹
kinact (rate constant of enzyme inactivation) ([2]; pH 8.0, 37° C.): 8.7 min⁻¹
